{"source": "patent US8338465B2", "about": "“Cyclic carboxylic acid rhodanine derivatives for the treatment and prevention of tuberculosis” (priority 2006, dated 2012)", "system": "Mycobacterium bovis var. Bacille Calmette Guerin (BCG)", "format": "cell-based", "details": "mildly acidic pH; 0.5 mM NaNO2 (pH 5.5) or 0.05 mM NaNO2 (pH 4.5)"}
{"smiles": "O=C(O)c1cccc(N2C(=O)C(=Cc3ccc(-c4ccccc4Cl)o3)SC2=S)c1", "note": "(single isomer, unassigned) [Mycopyrin 5, 3-[5[[5-(2-chlorophenyl)-2-furanyl]methylene]-4-oxo-2-thioxo-3-thiazolidinyl]benzoic acid]", "values": [{"measurement": "killing of non-replicating BCG together with nitrite", "result": "in synergy with nitrite"}]}
